Assay results taken from patent US10842892B2, “Methods and apparatus for synthesizing imaging agents, and intermediates thereof” (Lantheus Medical Imaging, Inc., priority 2010, dated 2020).
“And” between values parts separate entries of the source, which are not always exact repeats. Equal entries are not always repeated.

Test system: viable left ventricle
Assay: left ventricular viability after myocardial infarction, imaging agent 1 versus FDG
Settings: rat, in vivo
Procedure: MI was induced in rats by 30 minutes of\ coronary occlusion followed reperfusion. Imaging agent 1 (1 mCi) and FDG (1 mCi) cardiac imaging in 2 days apart was performed in rats of before, two days (early MI) and four weeks (late MI) post surgery. A regimen of glucose and insulin was injected before FDG imaging to ensure high cardiac uptake. Viable left ventricle was quantified in images as the volume with ≥50% of maximum activity.

^18F fluorodeoxyglucose [FDG, reference compound]
left ventricular volume: 1.11±0.07 cm3 | viable left ventricular tissue volume: 0.75±0.04 cm3 and 0.99±0.09 cm3
